In general, Ki refers to the dissociation constant of the complex between target and ligand, obtained from inhibition or displacement. Lower therefore signals higher affinity.

By UniProt entry, the sequences of proteins in these tests, tags left out.
UniProt P08172, whole entry: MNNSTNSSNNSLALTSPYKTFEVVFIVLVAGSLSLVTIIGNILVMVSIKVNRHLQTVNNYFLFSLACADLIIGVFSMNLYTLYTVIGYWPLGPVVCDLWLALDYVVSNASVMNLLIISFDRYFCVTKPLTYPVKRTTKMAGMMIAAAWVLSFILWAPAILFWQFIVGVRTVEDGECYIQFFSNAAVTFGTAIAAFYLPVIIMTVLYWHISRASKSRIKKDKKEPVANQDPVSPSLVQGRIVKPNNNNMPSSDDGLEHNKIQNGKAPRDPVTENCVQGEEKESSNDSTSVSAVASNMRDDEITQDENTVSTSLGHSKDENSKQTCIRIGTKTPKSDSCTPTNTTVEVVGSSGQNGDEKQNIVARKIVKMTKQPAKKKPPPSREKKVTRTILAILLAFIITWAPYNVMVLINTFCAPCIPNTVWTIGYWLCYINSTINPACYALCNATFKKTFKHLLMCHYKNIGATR

This is an account of results in ChEMBL document CHEMBL1143946, “Docking analyses on human muscarinic receptors: unveiling the subtypes peculiarities in agonists binding” (Bioorg Med Chem, 2008).

This assay concerns the target Muscarinic acetylcholine receptor M2 (Homo sapiens, UniProt P08172). The assay can be described thus: biochemical.

With `CCCCCCOc1nsnc1C1=CCCN(C)C1` [XANOMELINE], the Ki was 11.7 nM.
